According to published antibiotic growth screens (doi:10.1038/s41589-023-01349-8):
The other results are listed elsewhere or left out.

test system: A. baumannii ATCC 17978; experiment: relative growth (fraction of control); higher = less inhibition; details: 50 µM

SMILES | relative growth
Cc1ncc(CO)c(/C=N/O)c1O | 1.04
Cc1cc(=O)nc(SCC(N)=O)[nH]1 | 1.11
CN(C)CCCNC(=O)[C@@]1(Cc2ccccc2I)c2ccccc2C(=O)N(C2CCCCC2)[C@H]1c1ccc(CO)cc1 | 0.987
COC(=O)NCCOc1nc(N(C)C)nc(N(C)C)n1 | 0.915
CCCNC(=O)Nc1ccc2c(c1)C(=O)N(C)C[C@H](OC)[C@H](C)CN(C(=O)C1CCOCC1)[C@H](C)CO2 | 1.25
O=C(NC1CCCCC1)NC1CCCCC1 | 0.999
CC(=O)O[C@@H]1CC[C@@]2(C)C(CC[C@]3(C)C2CC=C2C4CC(C)(C)CC[C@]4(C(=O)O)CC[C@]23C)C1(C)C (stereo partly specified) | 0.839
CC12CCC3C(=CCc4cc(O)ccc43)C1CCC2=O (stereo unspecified) | 0.933
C[C@H]1COc2c(N3CCN(C)CC3)c(F)cc3c(=O)c(C(=O)O)cn1c23 | 0.146
COC(=O)c1c2oc(c1C(=O)OC)C(=O)N[C@H](Cc1ccccc1)Cn1cc(nn1)[C@@H](Cc1ccccc1)NC(=O)N[C@@H](CO)CC2 | 1.11
C=C1CCC2C(CC2(C)C)C(=O)CCC1O (stereo unspecified) | 0.976
O=c1[nH]cc(COCc2ccccc2)c(=O)[nH]1 | 1.05
O=C(C[C@@H]1CC[C@H]2[C@@H](COC[C@@H](O)CN2S(=O)(=O)c2ccccc2F)O1)NCc1ccccc1Cl | 1.1
CCS(=O)(=O)NCC[C@@H]1CC[C@@H](NC(=O)C2CCOCC2)[C@@H](CO)O1 | 1.02
Cl.N[C@@H]1[C@@H](O)[C@H](O)[C@@H](CO)O[C@H]1O | 0.941
Nc1ccn(C2O[C@H](CO)[C@@H](O)[C@H]2O)c(=O)n1 (stereo partly specified) | 1.11
NC(=O)CSc1ccccn1 | 0.984
O=C(C[C@H]1C=C[C@H](NC(=O)Cc2ccccn2)[C@H](CO)O1)NCCCN1CCOCC1 | 1.05
COc1ccc(NC(=O)N(C)C[C@H]2Oc3cc(C#CCN(C)C)ccc3S(=O)(=O)N([C@H](C)CO)C[C@H]2C)cc1 | 1.08
O=C(CCCCC(=O)N/N=C/[C@H](O)[C@H](O)[C@@H](O)[C@@H](O)CO)NO | 0.937
CNC[C@@H]1Oc2cc(C#CC(C)(C)O)ccc2S(=O)(=O)N([C@@H](C)CO)C[C@@H]1C | 1.11

SMILES | relative growth
C=CCNC(=O)CSc1nc(=O)cc(N)[nH]1 | 1.04
CN1CCC[C@H]1c1cccnc1.O=C(O)C(O)C(O)C(=O)O.O=C(O)C(O)C(O)C(=O)O | 1.05
C=CCn1c(=O)n([C@H]2O[C@@H](CO)[C@@H](O)[C@@H]2O)c2[nH]c(N)nc(=O)c21 | 1.03
O=C(C[C@H]1CC[C@@H]2[C@H](COC[C@@H](O)CN2C(=O)c2ccncc2)O1)NC1CCC1 | 1.09
Cn1cnc(S(=O)(=O)N2C[C@H](O)COC[C@@H]3O[C@H](CC(=O)NCc4cc(F)cc(F)c4)CC[C@H]32)c1 | 1.02
CC(C)NCC(O)c1ccc2ccccc2c1.Cl (stereo unspecified) | 1
O=C(CN1CCOCC1)NCC[C@@H]1CC[C@H](NC(=O)Cc2ccccn2)[C@@H](CO)O1 | 1.01
O=C(O)CSCC(=O)NC1CCSC1=O (stereo unspecified) | 0.981
CC(C)=CCOc1cc2oc(=O)ccc2cc1O | 0.955
COCC(=O)Nc1ccc2c(c1)OC[C@@H](C)N(C(=O)Cc1ccccn1)C[C@@H](C)[C@@H](OC)CN(C)C2=O | 0.952
CC(C)NC(=O)N[C@@H]1C=C[C@H](CC(=O)NCCN2CCCC2)O[C@@H]1CO | 0.968
O=C(Cc1ccncc1)NCC[C@H]1CC[C@@H](NC(=O)C2CCOCC2)[C@H](CO)O1 | 1.05
COc1cccc(S(=O)(=O)N2C[C@H](O)COC[C@H]3O[C@@H](CC(=O)N4CCOCC4)CC[C@@H]32)c1 | 0.865
CC(C)(C)OC(=O)C[C@@H]1CC=CC[C@@H](CC(=O)NCCO)C(=O)N[C@@H](Cc2ccccc2)COC1=O | 1.02
CCC(C)C1NC(=O)C(CCNCS(=O)(=O)[O-])NC(=O)C(NC(=O)C(CCNCS(=O)(=O)[O-])NC(=O)C(NC(=O)C(CCNCS(=O)(=O)[O-])NC(=O)CCCCC(C)C)C(C)O)CCNC(=O)C(C(C)O)NC(=O)C(CCNCS(=O)(=O)[O-])NC(=O)C(CCNCS(=O)(=O)[O-])NC(=O)C(C(C)CC)NC1=O.[Na+].[Na+].[Na+].[Na+].[Na+] (stereo unspecified) | 0.158
C[C@H](CO)N1C[C@H](C)[C@H](CN(C)C(=O)c2cccnc2)Oc2ncc(-c3ccc(C(=O)N(C)C)cc3)cc2C1=O | 1.08
COc1cccc(S(=O)(=O)N[C@@H]2CC[C@H](CC(=O)NC3CCC3)O[C@H]2CO)c1 | 0.987
CC(=O)Oc1ccc(O)cc1 | 0.919
Cc1cc2c(cc1C)N=C(C(F)(F)F)CC(c1cccs1)=N2 | 0.922
O=S(=O)(NCC[C@@H]1CC[C@@H](NS(=O)(=O)c2cccc(Cl)c2)[C@H](CO)O1)c1cccc(F)c1 | 0.987
